Values of other authors in US9598354B2, “Fumarate compounds, pharmaceutical compositions thereof, and methods of use” (priority 2015, dated 2017).

Tested on: ALS

Question: Which extension of survival does the source give for `Nc1nc2ccc(OC(F)(F)F)cc2s1` [riluzole] here?
Answer: about three
